The values that follow are results of earlier work, collected in patent US9365511B2, “Biphenyl-ethyl-pyrrolidine derivatives as histamine H3 receptor modulators for the treatment of cognitive disorders” (Arena Pharmaceuticals, Inc., priority 2013, dated 2016).

Amino acid sequences for entries named in this document (tags omitted). A change or cut given only in a name is not applied to a line headed by its entry.
UniProt Q9QYN8: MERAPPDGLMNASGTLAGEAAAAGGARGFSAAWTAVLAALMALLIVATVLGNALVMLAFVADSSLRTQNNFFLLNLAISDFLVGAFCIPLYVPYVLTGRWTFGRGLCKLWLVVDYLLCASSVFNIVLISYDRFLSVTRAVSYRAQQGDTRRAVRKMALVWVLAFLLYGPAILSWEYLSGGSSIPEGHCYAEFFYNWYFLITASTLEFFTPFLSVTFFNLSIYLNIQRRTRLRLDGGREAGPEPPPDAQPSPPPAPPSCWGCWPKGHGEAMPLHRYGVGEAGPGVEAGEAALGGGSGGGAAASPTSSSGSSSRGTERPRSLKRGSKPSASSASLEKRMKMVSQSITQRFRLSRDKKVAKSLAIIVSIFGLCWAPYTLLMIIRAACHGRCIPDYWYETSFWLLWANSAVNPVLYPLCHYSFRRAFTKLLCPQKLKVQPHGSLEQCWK

In general, Kd refers to the concentration at which binding is half-saturated.

For this series, the target named is rat H3 receptor (Rattus norvegicus (Rat), UniProt Q9QYN8). To be noted: radioligand constant used for Cheng-Prusoff conversion; cited from earlier work.

For the substance [^3H]N-methylhistamine, the Kd was 0.4 nM.
